Biological target: T1, OX2 (Homo sapiens, UniProt O43614)
T1 construct: expressed in transfected cells; host or cells: CHO (CHO-OX2, kept under selection antibiotic)
Assay: Orexin receptor cell-based functional assay, [Ca2+]i by FLIPR, CHO-OX2 cells
Conditions: CHO-OX2 cells, [Ca2+]i by FLIPR, antagonist dose-range 0.1 nM-10 μM, EC90 of OXA; read-out: OX2

Chains of the proteins cited; added tags and fusions are not shown.
UniProt O43614, whole entry: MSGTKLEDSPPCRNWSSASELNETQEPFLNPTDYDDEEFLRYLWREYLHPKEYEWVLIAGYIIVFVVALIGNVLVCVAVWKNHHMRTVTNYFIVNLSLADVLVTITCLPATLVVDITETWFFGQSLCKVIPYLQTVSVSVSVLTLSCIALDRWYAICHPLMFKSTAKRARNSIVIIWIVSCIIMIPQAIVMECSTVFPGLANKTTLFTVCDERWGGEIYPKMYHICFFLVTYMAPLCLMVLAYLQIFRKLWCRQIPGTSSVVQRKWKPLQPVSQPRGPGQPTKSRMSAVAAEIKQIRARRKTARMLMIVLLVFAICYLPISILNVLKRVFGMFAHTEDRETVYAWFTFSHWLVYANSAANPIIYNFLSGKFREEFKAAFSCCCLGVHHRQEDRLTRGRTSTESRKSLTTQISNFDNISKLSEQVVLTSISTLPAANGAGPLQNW

| SMILES | IC50 [µM] |
| --- | --- |
| C[C@@H]1CCCN(C(=O)c2c(F)cccc2-n2nccn2)[C@@H]1CNc1ccc(C(F)(F)F)cn1 [Example A258, (2-Fluoro-6-(2H-1,2,3-triazol-2-yl)phenyl)((2S,3R)-3-methyl-2-(((5-(trifluoromethyl)pyridin-2-yl)amino)methyl)piperidin-1-yl)methanone] | > 5 |
| Cc1ccc(-c2ncccn2)c(C(=O)N2CCC[C@@H](C)[C@H]2CNc2ccc(Cl)cn2)n1 [Example A186, ((2S,3R)-2-(((5-chloropyridin-2-yl)amino)methyl)-3-methylpiperidin-1-yl)(6-methyl-3-(pyrimidin-2-yl)pyridin-2-yl)methanone] | > 5 |
| C[C@@H]1CCCN(C(=O)c2cc(F)ccc2-n2nccn2)[C@@H]1CNc1ncc(Cl)cn1 [Example A221, ((2S,3R)-2-(((5-Chloropyrimidin-2-yl)amino)methyl)-3-methylpiperidin-1-yl)(5-fluoro-2-(2H-1,2,3-triazol-2-yl)phenyl)methanone] | > 5 |
| Cc1ccc(-c2ccccn2)c(C(=O)N2CCC[C@@H](C)[C@H]2CNc2ncc(F)cn2)c1 [Example A179, ((2S,3R)-2-(((5-Fluoropyrimidin-2-yl)amino)methyl)-3-methylpiperidin-1-yl)(5-methyl-2-(pyridin-2-yl)phenyl)methanone] | > 5 |
| Cc1ccc(-c2ccccn2)c(C(=O)N2CCC[C@@H](C)[C@H]2CNc2ccc(C#N)cn2)c1 [Example A60, 6-((((2S,3R)-3-Methyl-1-(5-methyl-2-(pyridin-2-yl)benzoyl)piperidin-2-yl)methyl)amino)nicotinonitrile] | > 5 |
| Cc1ccc(-n2nccn2)c(C(=O)N2CCC[C@@H](C)[C@H]2CNc2ncc3cc(Br)ccc3n2)c1 [Example A122, ((2S,3R)-2-(((6-Bromoquinazolin-2-yl)amino)methyl)-3-methylpiperidin-1-yl)(5-methyl-2-(2H-1,2,3-triazol-2-yl)phenyl)methanone] | > 5 |
| C[C@@H]1CCCN(C(=O)c2c(-n3nccn3)ccc(F)c2F)[C@@H]1CNc1ncc(C(F)(F)F)cn1 [Example A337, (2,3-Difluoro-6-(2H-1,2,3-triazol-2-yl)phenyl)((2S,3R)-3-methyl-2-(((5-(trifluoromethyl)pyrimidin-2-yl)amino)methyl)piperidin-1-yl)methanone] | > 5 |
| Cc1ccc(-c2cccnn2)c(C(=O)N2CCC[C@@H](C)[C@H]2CNc2ccc(C(F)(F)F)cn2)c1 [Example A197, ((2S,3R)-3-methyl-2-(((5-(trifluoromethyl)pyridin-2-yl)amino)methyl)piperidin-1-yl)(5-methyl-2-(pyridazin-3-yl)phenyl)methanone] | > 5 |
| C[C@@H]1CCCN(C(=O)c2cc(F)c(F)cc2-n2nccn2)[C@@H]1CNc1ncc(Cl)cn1 [Example A247, ((2S,3R)-2-(((5-Chloropyrimidin-2-yl)amino)methyl)-3-methylpiperidin-1-yl)(4,5-difluoro-2-(2H-1,2,3-triazol-2-yl)phenyl)methanone] | > 5 |
| COc1ccc(-n2nccn2)c(C(=O)N2CCC[C@@H](C)[C@H]2CNc2ccc(C(F)(F)F)cn2)c1F [Example A338, (2-Fluoro-3-methoxy-6-(2H-1,2,3-triazol-2-yl)phenyl)((2S,3R)-3-methyl-2-(((5-(trifluoromethyl)pyridin-2-yl)amino)methyl)piperidin-1-yl)methanone] | > 5 |

Continued, values first:

| IC50 [µM] | SMILES |
| --- | --- |
| 2.6 | Cc1ccc(-c2ccccn2)c(C(=O)N2CCC[C@@H](C)[C@H]2CNc2nc3cc(Cl)ccc3o2)n1 [Example A199, ((2S,3R)-2-(((5-Chlorobenzo[d]oxazol-2-yl)amino)methyl)-3-methylpiperidin-1-yl)(6′-methyl-[2,3′-bipyridin]-2′-yl)methanone] |
| 8.5 | Cc1ccc(C(=O)N2CCC[C@@H](C)[C@H]2CNc2ncc(C(F)(F)F)cn2)c(-n2nccn2)c1 [Example A272, ((2S,3R)-3-Methyl-2-(((5-(trifluoromethyl)pyrimidin-2-yl)amino)methyl)piperidin-1-yl)(4-methyl-2-(2H-1,2,3-triazol-2-yl)phenyl)methanone] |
| > 4 | Cc1nc(C(=O)N2CCC[C@@H](C)[C@H]2CNc2ncc(Cl)cn2)c(-c2ccc(F)cc2)s1 [Example A41, ((2S,3R)-2-(((5-Chloropyrimidin-2-yl)amino)methyl)-3-methylpiperidin-1-yl)(5-(4-fluorophenyl)-2-methylthiazol-4-yl)methanone] |
| 1.4 | Cc1ccc(-n2nccn2)c(C(=O)N2CC3CCCC3C2CNc2ccc(C(F)(F)F)cn2)c1 (centres unmarked) [Example A69, (5-Methyl-2-(2H-1,2,3-triazol-2-yl)phenyl)(1-(((5-(trifluoromethyl)pyridin-2-yl)amino)methyl)hexahydrocyclopenta[c]pyrrol-2(1H)-yl)methanone] |
| 0.69 | CCn1cc(-c2ccc(C)cc2C(=O)N2CCC[C@@H](C)[C@H]2CNc2ccc(C(F)(F)F)cn2)cn1 [Example A110, (2-(1-Ethyl-1H-pyrazol-4-yl)-5-methylphenyl)((2S,3R)-3-methyl-2-(((5-(trifluoromethyl)pyridin-2-yl)amino)methyl)piperidin-1-yl)methanone] |
| 0.086 | Cc1ccc(-n2ncc(C)n2)c(C(=O)N2CCC[C@@H](C)[C@H]2CNc2nc3cc(F)ccc3o2)c1 [Example A141, ((2S,3R)-2-(((5-Fluorobenzo[d]oxazol-2-yl)amino)methyl)-3-methylpiperidin-1-yl)(5-methyl-2-(4-methyl-2H-1,2,3-triazol-2-yl)phenyl)methanone] |
| > 4 | Cc1ccc(-c2cn[nH]c2)c(C(=O)N2CCC[C@@H](C)[C@H]2CNc2ccc(C(F)(F)F)cn2)c1 [Example A3, ((2S,3R)-3-Methyl-2-(((5-(trifluoromethyl)pyridin-2-yl)amino)methyl)piperidin-1-yl)(5-methyl-2-(1H-pyrazol-4-yl)phenyl)methanone] |
| 2.8 | C[C@@H]1CCCN(C(=O)c2cc(Cl)ccc2-c2ncccn2)[C@@H]1CNc1ncc(C(F)(F)F)cn1 [Example A201, (5-Chloro-2-(pyrimidin-2-yl)phenyl)((2S,3R)-3-methyl-2-(((5-(trifluoromethyl)pyrimidin-2-yl)amino)methyl)piperidin-1-yl)methanone] |
| 2.3 | Cc1ccc(-n2nccn2)c(C(=O)N2CCC[C@@H](C)[C@H]2CNc2ncc(C(F)(F)F)cc2F)n1 [Example A188, ((2S,3R)-2-(((3-Fluoro-5-(trifluoromethyl)pyridin-2-yl)amino)methyl)-3-methylpiperidin-1-yl)(6-methyl-3-(2H-1,2,3-triazol-2-yl)pyridin-2-yl)methanone] |
| 3.4 | Cc1ccc(-c2ncccn2)c(C(=O)N2CCC[C@@H](C)[C@H]2CNc2ccc(Cl)cn2)c1 [Example A138, ((2S,3R)-2-(((5-Chloropyridin-2-yl)amino)methyl)-3-methylpiperidin-1-yl)(5-methyl-2-(pyrimidin-2-yl)phenyl)methanone] |
| 0.81 | C[C@@H]1CCCN(C(=O)c2cccc(F)c2-c2ncccn2)[C@@H]1CNc1ccc(C(F)(F)F)cn1 [Example A233, (3-Fluoro-2-(pyrimidin-2-yl)phenyl)((2S,3R)-3-methyl-2-(((5-(trifluoromethyl)pyridin-2-yl)amino)methyl)piperidin-1-yl)methanone] |

Same assay, conditions: Table 2; CHO-OX2 cells, EC90 of OXA; read-out: IC50 Bioactivity OX2

| IC50 [µM] | SMILES |
| --- | --- |
| 8.8 | Cc1ccc(-c2cccnc2)c(C(=O)N2CCC[C@@H](C)[C@H]2CNc2ccc(C(F)(F)F)cn2)c1 (racemic) [Example 104, rac-cis-(3-Methyl-2-(((5-(trifluoromethyl)pyridin-2-yl)amino)methyl)piperidin-1-yl) (5-methyl-2-(pyridin-3-yl)phenyl)methanone] |
| 0.004 | Cc1nc(-c2ccccc2)c(C(=O)N2CC(F)CCC2CNC(=O)c2cccc3cccnc23)s1 (racemic) [Example 35, N-((5-Fluoro-1-(2-methyl-4-phenylthiazole-5-carbonyl)piperidin-2-yl)methyl)quinoline-8-carboxamide] |
| > 10 | Cc1ccc(-n2nccn2)c(C(=O)N2CCC[C@@H](C)[C@H]2CNc2ncc(C(F)(F)F)cn2)c1 (racemic) [Example 97, rac-cis-(3-Methyl-2-(((5-(trifluoromethyl)pyrimidin-2-yl)amino)methyl)piperidin-1-yl)(5-methyl-2-(2H-1,2,3-triazol-2-yl)phenyl)methanone] |
| 3.2 | Cc1nc(C(=O)N2CCC[C@@H](C)[C@H]2CNc2cncc(Cl)n2)c(-c2ccc(F)cc2)s1 (racemic) [Example 123, rac-cis-(2-(((6-Chloropyrazin-2-yl)amino)methyl)-3-methylpiperidin-1-yl)(5-(4-fluorophenyl)-2-methylthiazol-4-yl)methanone] |
| > 3 | Cc1nc(C(=O)N2CCC[C@@H](C)[C@H]2CNc2ccc(C(F)(F)F)cn2)c(-c2ccccc2)s1 (racemic) [Example 73, rac-cis-(3-Methyl-2-(((5-(trifluoromethyl)pyridin-2-yl)amino)methyl)piperidin-1-yl)(2-methyl-5-phenylthiazol-4-yl)methanone] |
| > 5 | Cc1nc(C(=O)N2CCC[C@@H](C)[C@H]2CNc2ncc(Br)cn2)c(-c2ccc(F)cc2)s1 (racemic) [Example 15, rac-cis-(2-(((5-Bromopyrimidin-2-yl)amino)methyl)-3-methylpiperidin-1-yl)(5-(4-fluorophenyl)-2-methylthiazol-4-yl)methanone] |
| > 10 | COc1cnc(NC[C@@H]2[C@H](C)CCCN2C(=O)c2nc(C)sc2-c2ccc(F)cc2)nc1 (racemic) [Example 88, rac-cis-(2-(((5-Methoxypyrimidin-2-yl)amino)methyl)-3-methylpiperidin-1-yl) (5-(4-fluorophenyl)-2-methylthiazol-4-yl)methanone] |
| 0.19 | Cc1ccc(-c2ncco2)c(C(=O)N2CCC[C@@H](C)[C@H]2CNc2ccc(C(F)(F)F)cn2)c1 (racemic) [Example 113, rac-cis-(3-Methyl-2-(((5-(trifluoromethyl)pyridin-2-yl)amino)methyl)piperidin-1-yl)(5-methyl-2-(oxazol-2-yl)phenyl)methanone] |
